# Measured values as given in patent US10933063B2 (priority 2017, dated 2021).
# Chains of the proteins cited; added tags and fusions are not shown. Lines headed by an entry give the natural chain unless they say otherwise; changes in a name come on top.
# UniProt P42680: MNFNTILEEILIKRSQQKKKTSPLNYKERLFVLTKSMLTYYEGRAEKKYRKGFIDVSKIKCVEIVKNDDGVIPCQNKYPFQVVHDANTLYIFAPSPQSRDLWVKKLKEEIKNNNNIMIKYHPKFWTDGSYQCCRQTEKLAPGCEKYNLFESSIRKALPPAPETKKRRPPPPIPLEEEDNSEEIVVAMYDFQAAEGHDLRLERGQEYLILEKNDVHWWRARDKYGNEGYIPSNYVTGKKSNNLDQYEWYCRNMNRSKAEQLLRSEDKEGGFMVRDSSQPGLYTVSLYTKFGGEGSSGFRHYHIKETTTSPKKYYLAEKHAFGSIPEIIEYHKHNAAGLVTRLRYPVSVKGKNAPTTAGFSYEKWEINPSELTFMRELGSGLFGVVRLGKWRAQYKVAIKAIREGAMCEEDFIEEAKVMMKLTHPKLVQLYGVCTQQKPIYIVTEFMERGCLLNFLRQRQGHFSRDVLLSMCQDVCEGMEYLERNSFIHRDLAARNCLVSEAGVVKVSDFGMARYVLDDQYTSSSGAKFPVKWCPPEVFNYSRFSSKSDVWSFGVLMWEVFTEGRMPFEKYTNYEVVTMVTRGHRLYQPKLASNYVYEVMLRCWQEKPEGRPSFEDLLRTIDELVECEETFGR
# UniProt P07948, whole entry, looked up, species assumed: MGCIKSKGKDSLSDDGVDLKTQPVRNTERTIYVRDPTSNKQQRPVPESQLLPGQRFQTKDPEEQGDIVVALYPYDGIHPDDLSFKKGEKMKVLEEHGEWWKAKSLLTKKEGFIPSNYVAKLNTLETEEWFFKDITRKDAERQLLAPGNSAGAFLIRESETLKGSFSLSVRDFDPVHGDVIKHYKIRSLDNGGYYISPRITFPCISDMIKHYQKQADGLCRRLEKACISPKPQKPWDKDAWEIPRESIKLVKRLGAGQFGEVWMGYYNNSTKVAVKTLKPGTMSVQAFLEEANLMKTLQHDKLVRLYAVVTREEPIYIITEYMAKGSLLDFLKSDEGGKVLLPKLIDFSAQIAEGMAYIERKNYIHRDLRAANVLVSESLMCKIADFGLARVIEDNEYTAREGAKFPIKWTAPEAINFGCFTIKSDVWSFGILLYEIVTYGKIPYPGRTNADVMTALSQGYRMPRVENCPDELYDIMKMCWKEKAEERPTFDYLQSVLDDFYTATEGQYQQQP
# UniProt Q06187, whole entry, looked up, species assumed: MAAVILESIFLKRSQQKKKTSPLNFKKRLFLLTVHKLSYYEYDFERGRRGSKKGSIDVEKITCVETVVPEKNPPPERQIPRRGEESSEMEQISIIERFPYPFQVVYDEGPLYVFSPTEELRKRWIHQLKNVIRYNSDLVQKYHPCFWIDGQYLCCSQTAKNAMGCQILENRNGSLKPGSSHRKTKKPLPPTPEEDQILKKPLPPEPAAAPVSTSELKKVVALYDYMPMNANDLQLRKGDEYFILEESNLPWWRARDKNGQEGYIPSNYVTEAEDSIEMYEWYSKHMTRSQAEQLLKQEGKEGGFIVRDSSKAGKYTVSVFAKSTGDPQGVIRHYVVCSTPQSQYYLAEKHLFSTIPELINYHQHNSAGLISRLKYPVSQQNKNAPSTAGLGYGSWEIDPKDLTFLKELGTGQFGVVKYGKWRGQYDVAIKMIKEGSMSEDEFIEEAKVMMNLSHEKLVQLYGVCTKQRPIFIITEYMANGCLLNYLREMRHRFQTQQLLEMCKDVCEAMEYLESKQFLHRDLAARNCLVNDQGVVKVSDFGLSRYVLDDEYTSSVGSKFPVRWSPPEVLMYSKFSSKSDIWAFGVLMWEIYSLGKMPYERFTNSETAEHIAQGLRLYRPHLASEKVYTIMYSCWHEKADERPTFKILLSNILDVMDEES
# UniProt Q08881, whole entry, looked up, species assumed: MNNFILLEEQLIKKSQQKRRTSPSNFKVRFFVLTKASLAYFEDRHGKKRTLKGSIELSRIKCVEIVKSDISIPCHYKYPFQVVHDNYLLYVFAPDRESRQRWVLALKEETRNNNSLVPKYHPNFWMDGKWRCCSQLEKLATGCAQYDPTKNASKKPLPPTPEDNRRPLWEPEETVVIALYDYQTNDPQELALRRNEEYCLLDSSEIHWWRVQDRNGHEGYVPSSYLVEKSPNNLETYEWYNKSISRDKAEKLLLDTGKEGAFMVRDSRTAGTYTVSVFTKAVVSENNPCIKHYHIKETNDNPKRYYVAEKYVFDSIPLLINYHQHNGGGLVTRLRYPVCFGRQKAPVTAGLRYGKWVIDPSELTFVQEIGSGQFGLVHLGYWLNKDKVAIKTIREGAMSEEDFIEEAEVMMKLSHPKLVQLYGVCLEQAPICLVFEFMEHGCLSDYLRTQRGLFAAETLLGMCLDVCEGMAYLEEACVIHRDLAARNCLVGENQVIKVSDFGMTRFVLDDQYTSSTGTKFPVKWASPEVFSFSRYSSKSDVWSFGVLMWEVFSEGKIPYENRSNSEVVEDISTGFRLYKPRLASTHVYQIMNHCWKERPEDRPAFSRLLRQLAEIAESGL
# UniProt P06239, whole entry, looked up, species assumed: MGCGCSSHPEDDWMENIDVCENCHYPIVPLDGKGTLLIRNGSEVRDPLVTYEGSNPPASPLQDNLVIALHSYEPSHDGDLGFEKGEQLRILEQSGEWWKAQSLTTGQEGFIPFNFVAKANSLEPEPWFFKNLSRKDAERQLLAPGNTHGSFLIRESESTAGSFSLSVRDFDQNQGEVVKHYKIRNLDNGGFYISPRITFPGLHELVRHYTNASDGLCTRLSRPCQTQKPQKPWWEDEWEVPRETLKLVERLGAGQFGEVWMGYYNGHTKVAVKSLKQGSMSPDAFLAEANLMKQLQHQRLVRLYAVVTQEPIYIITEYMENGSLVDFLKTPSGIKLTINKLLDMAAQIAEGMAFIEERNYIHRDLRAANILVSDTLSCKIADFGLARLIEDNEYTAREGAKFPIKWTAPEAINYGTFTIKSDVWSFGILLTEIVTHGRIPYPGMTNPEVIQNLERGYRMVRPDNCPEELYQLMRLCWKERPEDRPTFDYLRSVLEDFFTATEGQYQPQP
# Read-outs that look alike come from different tables or passages of the source.
# Legend:
# TEC = TEC (Homo sapiens (Human), UniProt P42680); assay: biochemical
# LYN = LYN (Homo sapiens (Human), UniProt P07948); assay: biochemical
# BTK [1] = target: T1, BTK (Homo sapiens (Human), UniProt Q06187); conditions: read-out: BTK IC50
# BTK [2] = target: T1, BTK; assay: biochemical
# ITK = ITK (Homo sapiens (Human), UniProt Q08881); assay: biochemical
# LCK = LCK (Homo sapiens (Human), UniProt P06239); assay: biochemical
SMILES,IC50 (TEC),IC50 (LYN),IC50 (BTK [1]),IC50 (BTK [2]),IC50 (ITK),IC50 (LCK)
"CC#CC(=O)N1CCCC[C@H]1c1nc(-c2ccc(Oc3cccc(OC)c3F)cc2)c2c(C)nccn12 [Example 5, (S)-1-(2-(1-(4-(2-Fluoro-3-methoxyphenoxy)phenyl)-8-methylimidazo[1,5-a]pyrazin-3-yl)piperidin-1-yl)but-2-yn-1-one]",100 to 1000 nM,> 10000 nM,10 to 100 nM,10 to 100 nM,> 10000 nM,> 10000 nM
"COc1cccc(Oc2ccc(-c3nc(C4CCC5CCN(C)C(=O)N5C4)n4ccncc34)cc2)c1F (centres unmarked) [Example 214, 7-(1-(4-(2-fluoro-3-methoxyphenoxy)phenyl)imidazo[1,5-a]pyrazin-3-yl)-2-methyloctahydro-1H-pyrido[1,2-c]pyrimidin-1-one]",,,,100 to 1000 nM,,
"C=CC(=O)N1CCCC[C@H]1c1nc(-c2ccc(Oc3cccc(OC)c3F)cc2)c2cnccn12 [Example 6, (S)-1-(2-(1-(4-(2-Fluoro-3-methoxyphenoxy)phenyl)imidazo[1,5-a]pyrazin-3-yl)piperidin-1-yl)prop-2-en-1-one]",,,,< 10 nM,,
